The values below come from PubChem BioAssay AID652067 (The Scripps Research Institute Molecular Screening Center, 2013).

The list shows a part of the results, in another mix than the full data. Some salts or complexes appear as unconnected parts, following the source record. Activity calls are given as the source filed them.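 How the source made its calls: active means activation above the mean of all tested compounds plus 3 SD (cut at about 5.5% in these data); inactive means the rest.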

The test system of the assay is DAF-12 nuclear receptor (Haemonchus contortus). Kind of assay: hcDAF-12 driven luciferase reporter activation – cell-based, luminescence, HEK293, lit1-tk-luc reporter, primary screen (AID 652067).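 Further: 100% = response to 3 µM Δ7-dafachronic acid high control.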 The following applies: HEK293 hcDAF-12 lit1-tk-luc reporter, at 6.8 µM, stronger effect = higher value, 0% DMSO, 100% Δ7-dafachronic acid.
For `COc1ccccc1OP(C)(=O)Nc1ccc(C)cc1` (centres undefined), the activation is inactive: -1.33%.
Consider `Cc1ccc(NP(C)(=O)Oc2ccccc2)c(C)c1` (centres undefined), for which the activation was inactive: -1.38%.
`CCOC(=O)c1ccc(NP(C)(=O)Oc2ccccc2)cc1` (centres undefined): the activation is inactive: -2.17%.
`Cc1cc(C)cc(OP(C)(N)=O)c1` (centres undefined): the activation is inactive: 0.71%.
As for `COc1ccccc1OP(C)(=O)Nc1cc(Cl)ccc1C` (centres undefined), the activation is inactive: -1.16%.
Consider `COc1ccc(OP(C)(=O)Nc2cccc(F)c2)cc1` (centres undefined), for which the activation is inactive: 1.43%.
For `O=[N+]([O-])c1cc([N+](=O)[O-])c(Nc2cccnc2)c([N+](=O)[O-])c1`, the activation was inactive: -0.06%.
To `O=[N+]([O-])c1ccc2c(c1)C=Nc1ccccc1O2` belongs inactive: -0.91%; to `CC(C)(C)c1ccc(OP(C)(=O)Nc2ccc(SC(F)(F)F)cc2)cc1` (centres undefined), inactive: -2.47%; to `Cc1cccc(C)c1OP(C)(N)=O` (centres undefined), inactive: -1.55%.
As to `COc1ccccc1-c1ccccn1.O=[N+]([O-])c1cc([N+](=O)[O-])c(O)c([N+](=O)[O-])c1`, the activation was inactive: 0.54%.
In the case of `CCN(CC)CCCOC(=O)C(O)(c1ccccc1)c1ccccc1` it was inactive: -0.33%; in that of `CCOC(=O)c1ccc(NP(C)(=O)Oc2ccc(OC)cc2)cc1` (centres undefined), inactive: -3.26%; in that of `O=[N+]([O-])c1cc([N+](=O)[O-])c(O)c([N+](=O)[O-])c1.c1ccc(Oc2ccncc2)cc1`, inactive: 1.07%.
For `CCOP(C)(=S)SCC(=O)NC(C)C(=O)O` (centres undefined), the activation was inactive: -1.46%.
As for `CP(=O)(Nc1ccccn1)Oc1ccc(Cl)cc1` (centres undefined), the activation was inactive: 0.72%.
As for `Cc1cccc(C)c1OP(C)(=O)Nc1ccc(SC(F)(F)F)cc1` (centres undefined), the activation was inactive: -2.12%.
As to `CP(=O)(Nc1ccc(SC(F)(F)F)cc1)Oc1ccc(Cl)cc1` (centres undefined), the activation is inactive: -0.9%.
Regarding `CP(=O)(Oc1ccccc1)OC(c1ccccc1)C(F)(F)F` (centres undefined), the activation is inactive: 0.12%.
Turning to `CP(=O)(NC(=O)Nc1ccccc1)Oc1ccccc1` (centres undefined), the activation is inactive: 1.77%.
With `CCc1ccc(OP(C)(=O)N2CCN(c3ccc([N+](=O)[O-])cc3)CC2)cc1` (centres undefined), the activation was inactive: -1.15%.
Regarding `Cc1cc(C)cc(OP(C)(=O)Nc2ccc(SC(F)(F)F)cc2)c1` (centres undefined), the activation is inactive: 0.05%.
To `CP(=S)(Nn1cnnc1)Oc1ccccc1` (centres undefined) belongs inactive: 1.94%; to `CP(=O)(Nc1ccccc1Br)Oc1ccccc1` (centres undefined), inactive: 1.12%; to `COc1ccccc1OP(C)(=O)Nc1ccccc1` (centres undefined), inactive: -0.15%.
In the case of `COc1ccccc1OP(C)(=O)Nc1c(C)cccc1C` (centres undefined), the activation was inactive: -0.28%.
`CN1CCCCC1COC(=O)C1(O)c2ccccc2CCc2ccccc21` (centres undefined): the activation is inactive: -1.24%.
Consider `COc1ccc(-c2ccccn2)cc1.O=[N+]([O-])c1cc([N+](=O)[O-])c(O)c([N+](=O)[O-])c1`, for which the activation was inactive: 3.3%.
Consider `CCCOc1ccc(NP(C)(=O)Oc2ccc(Cl)cc2)cc1` (centres undefined), for which the activation is inactive: -2.63%.
To `CP(=O)(Nc1ccc(SC(F)(F)F)cc1)Oc1ccccc1` (centres undefined) belongs inactive: -1.35%.
In the case of `O=[N+]([O-])c1cc([N+](=O)[O-])c(Nc2nnnn2CCO)c([N+](=O)[O-])c1`, the activation was inactive: -0.88%.
With `CCOC(=O)C(CC)C1=NC(C)(C)Cc2ccccc21.O=[N+]([O-])c1cc([N+](=O)[O-])c(O)c([N+](=O)[O-])c1` (centres undefined), the activation is inactive: 0.29%.
`O=[N+]([O-])c1cc([N+](=O)[O-])c(-c2cnn(-c3ccccc3)c2)c([N+](=O)[O-])c1`: the activation is inactive: -2.37%.
For the molecule `Cc1nc2ccc3ccccc3c2s1.O=[N+]([O-])c1cc([N+](=O)[O-])c(O)c([N+](=O)[O-])c1`, the activation was inactive: -0.34%.
Regarding `O=[N+]([O-])c1cc([N+](=O)[O-])c(-n2nnc3ccccc32)c([N+](=O)[O-])c1`, the activation is inactive: -0.63%.
As for `CN(Cc1cccnc1)C(=O)COc1ccc(Cl)c(Cl)c1.O=[N+]([O-])c1cc([N+](=O)[O-])c(O)c([N+](=O)[O-])c1`, the activation is inactive: -2.01%.
For the molecule `Cc1ccc(C)c(NP(C)(=O)Oc2ccccc2)c1` (centres undefined), the activation is inactive: -0.79%.
In the case of `Cc1cc(C)cc(OP(C)(=O)Nc2ccccn2)c1` (centres undefined), the activation was inactive: 1.03%.
On to `CP(=O)(Nc1cccc(Br)c1)Oc1ccccc1` (centres undefined), for which the activation was inactive: -0.08%.
As for `COc1ccccc1OP(C)(=O)Nc1cccc(Br)c1` (centres undefined), the activation was inactive: -1.47%.
For `CCOC(=O)c1ccc(NP(C)(=O)Oc2cc(C)cc(C)c2)cc1` (centres undefined), the activation was inactive: 1.53%.
As for `Cc1cc(C)cc(OP(C)(=O)Nc2ccc(C)cc2C)c1` (centres undefined), the activation was inactive: -0.69%.
For the molecule `CC1=NCCc2c1[nH]c1ccccc21.O=[N+]([O-])c1cc([N+](=O)[O-])c(O)c([N+](=O)[O-])c1`, the activation was inactive: 0.75%.
As to `O=C(O)c1cccc(Nc2c([N+](=O)[O-])cc([N+](=O)[O-])cc2[N+](=O)[O-])c1`, the activation was inactive: -1.14%.
In the case of `Cc1c([N+](=O)[O-])cc([N+](=O)[O-])c(Br)c1[N+](=O)[O-]` it was inactive: -0.53%.
As for `CCN(CC)CCCOC(=O)C(O)(c1ccccc1)C1CCCCC1` (centres undefined), the activation was inactive: -1.69%.
On to `CP(=O)(Nc1ccccc1)Oc1ccc(F)cc1` (centres undefined), for which the activation was inactive: -1.31%.
Regarding `CCCCCOc1ccc(NP(C)(=O)Oc2ccc(Cl)cc2Cl)cc1` (centres undefined), the activation is inactive: -0.7%.
Turning to `O=[N+]([O-])c1cc([N+](=O)[O-])c(OC2CCCCC2O)c([N+](=O)[O-])c1` (centres undefined), the activation was inactive: -0.53%.
For the molecule `CCN(CC)CCCNc1ccccc1[N+](=O)[O-].O=[N+]([O-])c1cc([N+](=O)[O-])c(O)c([N+](=O)[O-])c1`, the activation was inactive: 0.3%.
With `CCOC(=O)c1ccc(NP(C)(=O)Oc2ccc(F)cc2)cc1` (centres undefined), the activation was inactive: 0.95%.
With `COc1ccc(OP(C)(=O)Nc2ccc(SC(F)(F)F)cc2)cc1` (centres undefined), the activation was inactive: -1.34%.
Take `O=C(OC1CN2CCC1CC2)c1ccc([N+](=O)[O-])cc1` (centres undefined): the activation was inactive: 1.87%.
With `O=C(OCCN1CCN(CCOCc2ccccc2)CC1)C(O)(c1ccccc1)c1ccccc1`, the activation is inactive: -1.85%.
`COc1ccc2c(c1O)-c1c(O)c(OC)cc3c1[C@H](C2)[N+](C)(C)CC3.O=[N+]([O-])c1cc([N+](=O)[O-])c([O-])c([N+](=O)[O-])c1[O-]`: the activation is inactive: 0.59%.
As for `O=[N+]([O-])c1cc([N+](=O)[O-])c(Nc2ccc(Cl)cc2)c([N+](=O)[O-])c1`, the activation was inactive: -1.51%.
As for `CP(=O)(Nc1ccccc1F)Oc1ccccc1` (centres undefined), the activation was inactive: 0.59%.
To `CC(C)c1ccc(OP(C)(=O)Nc2ccc(SC(F)(F)F)cc2)cc1` (centres undefined) belongs inactive: -2.26%; to `CP(=O)(Nc1ccc2c(c1)OCCO2)Oc1ccccc1` (centres undefined), inactive: -1.28%.
For the molecule `Cc1ccccc1NP(C)(=O)Nc1ccccc1C`, the activation was inactive: -0.92%.
On to `O=[N+]([O-])c1cc([N+](=O)[O-])c(C(F)(F)F)c([N+](=O)[O-])c1O`, for which the activation was inactive: -0.61%.
With `CP(=O)(Nc1ccc(SC(F)(F)F)cc1)Oc1ccc(F)cc1` (centres undefined), the activation was inactive: -1.43%.
`CCOP(C)(=S)SCC(=O)NC(C)(CC)C(=O)O` (centres undefined): the activation is inactive: -2.04%.
To `CCOP(=O)(CC)OCC` belongs inactive: 1.64%; to `O=[N+]([O-])c1ccc(OP2(=O)COCCO2)cc1` (centres undefined), inactive: -0.8%.
Consider `O=[N+]([O-])c1cc([N+](=O)[O-])c(NCC2CCS(=O)(=O)C2)c([N+](=O)[O-])c1` (centres undefined), for which the activation was inactive: -4.3%.
`Cc1cc(-c2cccc3ccccc23)c(C)cn1.O=[N+]([O-])c1cc([N+](=O)[O-])c(O)c([N+](=O)[O-])c1`: the activation was inactive: -1.81%.
As for `Cc1c(C(c2ccc3c(c2)OCO3)c2c(C)n(C)n(-c3ccccc3)c2=O)c(=O)n(-c2ccccc2)n1C.O=[N+]([O-])c1cc([N+](=O)[O-])c(O)c([N+](=O)[O-])c1`, the activation was inactive: -0.37%.
To `COc1ccc(OP(C)(=O)Nc2cccc(Br)c2)cc1` (centres undefined) belongs inactive: -0.73%; to `CN(C)CCOC(=O)C(O)(c1ccccc1)C1CCCCC1` (centres undefined), inactive: -1%.
In the case of `COc1ccc(NP(C)(=O)Oc2ccccc2OC)cc1` (centres undefined) it was inactive: -1.25%.
To `Nc1ccc2c(ccc3cccnc32)n1.O=[N+]([O-])c1cc([N+](=O)[O-])c(O)c([N+](=O)[O-])c1` belongs inactive: 3.02%; to `CCOC(=O)c1ccc(NP(C)(=O)Oc2ccc(Cl)cc2)cc1` (centres undefined), inactive: 1.27%; to `CP(=O)(OC12CC3CC(CC(C3)C1)C2)OC12CC3CC(CC(C3)C1)C2`, inactive: -0.85%.
Regarding `COc1ccccc1OP(C)(=O)Nc1ccccc1Br` (centres undefined), the activation is inactive: -2.34%.
`CC(C)(C)c1ccc(OP(C)(=O)O)cc1`: the activation was inactive: -1.83%.
Consider `CP(=O)(Nc1ccc(Cl)cc1)Oc1ccc(F)cc1` (centres undefined), for which the activation was inactive: -1.12%.
As to `CN(C)C(=O)c1c([N+](=O)[O-])cc([N+](=O)[O-])cc1[N+](=O)[O-]`, the activation is inactive: -1.99%.
Turning to `CCN(CC)CC(O)COC(=O)C(O)(c1ccccc1)C1CCCCC1` (centres undefined), the activation is inactive: -1.35%.
In the case of `COc1ccc(OP(C)(=O)Nc2ccc(Br)cc2)cc1` (centres undefined) it was inactive: -1.44%; in that of `COc1ccccc1OP(C)(=O)Nc1c(C)n(C)n(-c2ccccc2)c1=O` (centres undefined), inactive: -0.92%.
Consider `O=C(OCCCN1CCCC1)C(O)(c1ccccc1)C1CCCCC1` (centres undefined), for which the activation was inactive: -0.23%.
Consider `CP(=O)(Oc1ccccc1)N1CCOC1=O` (centres undefined), for which the activation is inactive: -1.01%.
Take `CCc1ccc(OP(C)(=O)Nc2cccnc2)cc1` (centres undefined): the activation was inactive: 0.43%.
Regarding `Cc1c(NP(C)(=O)Oc2ccc(C(C)C)cc2)c(=O)n(-c2ccccc2)n1C` (centres undefined), the activation is inactive: -1.38%.
For `O=[N+]([O-])c1cc([N+](=O)[O-])c(Nc2ccccn2)c([N+](=O)[O-])c1`, the activation was inactive: -0.57%.
With `CP(=O)(Nc1ccccn1)Oc1ccccc1` (centres undefined), the activation is inactive: 1.89%.
`COc1ccccc1OP(C)(=O)Nc1ccc(C)cc1C` (centres undefined): the activation is inactive: -1.04%.
Turning to `CCc1ccc(OP(C)(=O)O)cc1`, the activation is inactive: -0.3%.
For `COc1ccccc1OP(C)(=O)Nc1ccc(Br)cc1` (centres undefined), the activation is inactive: -0.77%.
As to `COc1ccc(OP(C)(=O)Nc2ccccn2)cc1` (centres undefined), the activation is inactive: -0.28%.
In the case of `CN(C)CCOC(=O)C(O)(c1ccccc1)C1CCCC1` (centres undefined) it was inactive: -1.66%.
For `CCCCCCCCCCCCCCCC1C[N+](C)(C)CCOP(C)(=O)O1` (centres undefined), the activation is inactive: -0.76%.
With `CP(=O)(Nc1ccc(Cl)cc1Cl)Oc1ccccc1` (centres undefined), the activation was inactive: 0.46%.
To `CP(=O)(OCCOc1ccccc1)OCCOc1ccccc1` belongs inactive: -1.37%; to `O=C1C(O)=C([N+](=O)[O-])C(=O)C(O)=C1[N+](=O)[O-]`, inactive: 1.78%; to `Cc1cc(C)cc(OP(C)(=O)Nc2cccc(C(F)(F)F)c2)c1` (centres undefined), inactive: -1.52%.
As for `COc1ccccc1OP(C)(=O)Nc1ccc(C)c(C)c1` (centres undefined), the activation is inactive: -0.56%.
Consider `COc1ccc(OP(C)(=O)Nc2ccccc2Br)cc1` (centres undefined), for which the activation was inactive: 1.22%.
